# From ChEMBL document CHEMBL5614438, “CETZOLE Analogs as Potent Ferroptosis Inducers and Their Target Identification Using Covalent/Affinity Probes” (J Med Chem, 2024)
# Calls of active or inactive are those of the source. The calls are words filed in the database; no cut-off is given here.
# Key:
# NCI-H522 = experiment: Cytotoxicity against human NCI-H522 cells assessed as reduction in cell viability incubated for 3 days by methylene blue staining based spectrophotometric analysis; format: functional; conditions: NCI-H522, 72 h, time 3 day
# [1] = biological target: T1, Phospholipid hydroperoxide glutathione peroxidase GPX4 (Homo sapiens) (UniProt P36969); experiment: Inhibition of recombinant GPX4 (unknown origin) at 100 uM incubated for 60 mins followed by NADPH addition
# T1 sequence (whole entry): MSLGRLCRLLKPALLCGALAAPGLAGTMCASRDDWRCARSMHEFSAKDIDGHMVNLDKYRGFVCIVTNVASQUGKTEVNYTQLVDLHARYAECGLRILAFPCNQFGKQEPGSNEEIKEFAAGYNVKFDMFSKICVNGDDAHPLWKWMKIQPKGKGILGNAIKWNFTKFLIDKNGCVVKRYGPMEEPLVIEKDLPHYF
smiles,measurement,setting,value
C#Cc1nc(C2=C(C)C(O)CC2)cs1 (racemic),CC50,NCI-H522,2560 nM
same,inhibition,[1],Active
